# Reference: ChEMBL document CHEMBL3400006, “Improving the passive permeability of macrocyclic peptides: Balancing permeability with other physicochemical properties” (Bioorg Med Chem, 2015)
# Assay: Permeability of the compound at donor pH 7.4 and acceptor pH 7.4 after 3 hrs incubation by PAMPA analysis
# Type: ADME
# Details: read-out: permeability
row,Papp at 3 h [×10⁻⁶ cm/s],SMILES
1,41.5,CC(C)C[C@@H]1NC(=O)[C@@H](CC(C)C)NC(=O)[C@@H](CC(C)C)NC(=O)[C@H](Cc2ccc(O)cc2)NC(=O)[C@H]2CCCN2C(=O)[C@@H](CC(C)C)NC1=O
2,11.1,CC(C)C[C@@H]1NC(=O)[C@H](Cc2ccc(O)cc2)NC(=O)[C@@H]2CCCN2C(=O)[C@H](CC(C)C)NC(=O)[C@H](CC(C)C)NC(=O)[C@@H](CC(C)C)NC1=O
3,4.1,CC(C)C[C@@H]1NC(=O)[C@H](CC(C)C)NC(=O)[C@@H](CC(C)C)NC(=O)[C@H](Cc2ccc(O)cc2)NC(=O)[C@@H]2CCCN2C(=O)[C@H](CC(C)C)NC1=O
4,36.3,CC(C)C[C@@H]1NC(=O)[C@H](Cc2ccc(O)cc2)N(C)C(=O)[C@@H]2CCCN2C(=O)[C@H](CC(C)C)NC(=O)[C@H](CC(C)C)N(C)C(=O)[C@@H](CC(C)C)N(C)C1=O
